Source: patent publication US20260382635A1, “NITROSYL-HEME FORMULATIONS FOR THE TREATMENT OF CARDIOVASCULAR CONDITIONS, HEMOLYSIS, AND THE STABILIZATION OF CELL-FREE HEME MOLECULES” (published 2026)

How the values were obtained:
albumin = details: allosteric binding of small molecules; cited from earlier work
platelets = test: Platelet activation in platelet-rich plasma (flow cytometry); details: controls; 2.5 μM heme, 25 μM GSH, 7.5 μM albumin; 2 μM ADP (FIG. 12)
Method: Samples were prepared using heme (25 μM), NO (20 μM), albumin (75 μM) with and without GSH (250 μM) under normoxic or anoxic conditions. Fresh blood was drawn into sodium citrate tubes with the first tube being discarded and platelet rich plasma (PRP) collected after sedimentation of the red blood cells. Platelet activation was measured as described previously.^82 First, PRP was diluted 1:7 with oxygenated or deoxygenated PBS buffer, then albumin samples were mixed with this diluted PRP in 1:10 ratio. After 5 minutes of incubation at 37 °C, 2 μM ADP was added to all test samples except negative vehicle controls, followed by 10 additional minutes incubation. 20 μL of each sample was subsequently added to PAC-1 FITC (BD™ FITC Mouse Anti-Human PAC-1, 25 μg/mL (1 mL); catalog no. 340507; clone PAC-1 RUO (GMP))—which labels activated platelets—and CD61 (BD™ PerCP Mouse Anti-Human CD61, 3 g/mL (1 mL); catalog no. 340506; clone RUU-PL7F12 RUO (GMP))—which labels all platelets- and incubated at room temperature in the dark for 20 minutes and then fixed in 1% buffered formaldehyde. Platelets were sorted using a BD FACSCalibur Analyzer. Data were collected and analyzed using BD CellQuest Pro (v6.0). Gating strategy was based on side and forward scattering compared to red blood cells and then also for activated platelets. Platelets were labelled along the x-axis and activation on the y-axis. Activation was taken as the upper right quadrant divided by the sum of the two right quadrants (FIG. 14).
GSNO can inhibit platelets in vitro.^59,60 As GSNO is generated by the reaction, an alternate method to was employed to generate NO-ferroheme without GSNO by first reducing hemin with 1.6 fold excess sodium dithionite and then adding an equivalent of NO to the pre-formed ferrous heme at a final concentration of 2 μM (FIG. 4B). […] Finally, to establish that sGC is activated with NO-ferroheme in platelets, cGMP was detected with and without ODQ, a sGC inhibitor, and tadalafil, a phosphodiesterase (PDE) inhibitor (FIG. 4C). cGMP is increased with NO-ferroheme treatment vs controls (FIG. 4C, solid hexagons, p=0.0177), consistent with sGC activation and cGMP-dependent signaling.

mice = test: Changes in murine mean arterial pressure (MAP); details: nitrite infusion, normoxia
Method: A total of 70 male C57BL/6J mice (the Jackson Laboratory), aged between 12 to 14 weeks, were anesthetized by isoflurane (2.5%) for all experiments. Mice were in rooms maintaining 12/12 h light/dark cycles at 20-26 °C and 30-70% relative humidity. 10 of these total mice were used to establish the parameters of the model. Body temperature was maintained at 37 °C by a heating pad connected to heat pump (Androit). Catheters were implanted for carotid artery and jugular vein. Arterial blood pressure was continuously recorded through a blood pressure transducer (MLT699, ADInstrument) connected to an 8-channel Powerlab (ADInstrument). A tracheal tube was introduced and connected to a rodent ventilator (Model 849, MidiVent). Upon completion, in some animals, the fraction of inspiratory O2 was decreased from 21% to 10% to induce hypoxia. 75 μL of L-NAME was administered intravenously in a bolus at a dose of 10 mg/kg bodyweight. Ten minutes after L-NAME injection, animals were injected with 50 μL of NO-ferroheme, normal saline (NS), NO control, or freshly prepared GSNO^77 control for 4 times at 10-minute intervals. An NO-ferroheme in albumin stock was prepared via a concentrated version of the direct method as described above: 300 μM ferric heme was mixed anaerobically on a Schlenk line with 3 mM GSH and 600 μM NO in 500 μM albumin using air-tight Hamilton syringes. NO controls were generated similarly and comprised 300 μM dissolved NO with 3 mM GSH in anaerobic albumin solution. Likewise, GSNO stocks comprised 300 μM GSNO with 3 mM GSH in anaerobic albumin solution. Each of these stocks (NO-ferroheme, NO control, or GSNO control) were handled identically and diluted further in air with 500 μM albumin solution before injection by 1000-, 100-, and 10-fold. Mean arterial pressure (MAP) values were obtained by processed the recorded arterial pressure data with LabChart 7.3.8 (ADInstruments). To quantify changes ΔMAPmax was determined, defined as the average MAP before an injection (average of 3 to 5 time points) subtracted from the maximum change within 3 minutes after injection (average of 3-5 time points) for each species at a given concentration.
Using male C57BL/6J mice, catheters were inserted into the right carotid artery and jugular vein for monitoring MAP and for dose injections, respectively. Fresh NO-ferroheme stock solutions were generated in an anaerobic environment by mixing 300 μM hemin, 3 mM glutathione, 600 μM NO, and 500 μM bovine serum albumin in PBS. To establish that vasodilation was independent of endogenous eNOS-derived NO, mice were first treated with the NOS inhibitor L-NG-nitroarginine methyl ester (L-NAME). Four doses of NO-ferroheme were administered at estimated blood concentrations of 7.5 nM, 75 nM, 0.75 μM, and 7.5 μM. Doses were injected intravenously every ten minutes, long enough for the blood pressure to stabilize.
Injections of NO-ferroheme solution in hypoxic animals were characterized by a rapid, transient relaxation, as monitored by changes in MAP. The MAP almost completely returned to the L-NAME induced baseline after ten minutes when compared to normal saline controls (FIG. 5A). […] These changes were also significant versus normal saline at 75 nM under normoxic conditions (p=0.0002), 0.75 μM and 7.5 μM (p<0.0001, FIG. 5D, open squares vs circles).
This synthesis can involve multiple potential vasodilators including NO itself, GSNO, and NO-ferroheme. Therefore, it was desirable to define the dominant vasodilating species. The vasodilation potency of NO and GSNO was compared. Fresh stocks of NO were made (300 μM NO, 3 mM glutathione, and 500 μM albumin) and mice were injected in 10-minute intervals at the same dosing as the NO-ferroheme albumin injections (7.5 nM, 75 nM, 0.75 μM, and 7.5 μM dissolved NO) under 10% hypoxia and normoxia (FIGS. 5A and 5B, hashed traces). […]

[1] = Kinetics of reductive nitrosylation of ferric heme in MeOH:PBS buffer (UV-Vis/stopped-flow)
Method: (§1) All individual spectra and pseudo-first-order kinetics were performed using a thermostatted (23/37 °C±0.2) Cary 50, Cary 100, or HP8453 UV-Visible spectrophotometer (Agilent Technologies) running either Cary WinUV Scan (v 5.23.1042, Agilent Technologies), Cary WinUV Scanning Kinetics (v3.00(183), Agilent Technologies), or UV-Visible ChemStation (vB.04.01 [61], Agilent Technologies) for reactions ferric heme reactions with NO and without glutathione in PBS and MeOH/PBS buffer (1 part PBS in 5 parts methanol) unless otherwise noted. For pseudo-first-order reactions with fast observed rates such as the ferric heme reaction with NO and reduced glutathione, a thermostatted SX-20 stopped-flow instrumented fitted with a direct mount photodiode array (Applied Photophysics, Ltd.) in an anaerobic chamber was used. Stopped-flow data were collected using Pro-Data SX (v2.5.1852.0, Applied Photophysics). Samples were prepared either in a glove box under nitrogen atmosphere or using a Schlenk line under argon atmosphere with oxygen-free buffers and solvents.
Hemin stock (5 mM) was prepared regularly in 20 mN anaerobic NaOH solution, sealed in a septum capped vial. The concentration of hemin was precisely determined by absorption spectroscopy using the extinction coefficient at 385 nm of 58.4 mM^−1 cm^−1.^78 Reduced glutathione stocks (25-100 mM) were made regularly in deaerated PBS and sealed in septum capped vials. Methanol was deaerated separated before mixing in a 5:1 ratio with deaerated PBS to make MeOH:PBS buffer for spectroscopy experiments. The precise concentration of NO from bubbling or from ProliNONOate was determined either by titrating with excess oxyhemoglobin and calculating the amount of methemoglobin produced by fitting absorption spectra to normalized basis spectra or using an ozone-based chemiluminescent analyzer. Stock concentrations of ProliNONOate were also verified through absorption spectroscopy, using the extinction coefficient at 248 nm of 8.4 mM^−1 cm^−1.^79 A sample stopped-flow experiment was performed as follows: 25 μM hemin and 250 µM hemin were loaded into one syringe, and a range of NO concentrations between 125 μM and 2.5 mM were loaded in the other syringe and the syringe contents were mixed 1:1 in the stoppled flow. For radical trapping experiments, the above reaction conditions were replicated plus the addition of 50 mM DMPO in deaerated MeOH:PBS solution.
A 5:1 mixture of methanol to phosphate buffered saline (PBS, pH 7.4)—herein referred to as the MeOH:PBS buffer—was used to solubilize free heme at concentrations amenable to UV-visible spectroscopic characterization. […]
Addition of 125 μM GSH with 12.5 μM ferric heme and only 125 μM NO results in rapid formation a product with the same spectroscopic signature, indicating NO-ferroheme formation (FIG. 1B, note markedly different time scale from FIG. 1A). […] The GSH-facilitated product lacks the characteristic dithionite absorbance at 315 nm.
Varying the concentrations of NO or GSH under pseudo first-order conditions allows for determination of the reaction dependence on GSH and NO, yielding calculated second-order rate constants of 7000 M^−1s^−1 and 2300 M^−1s^−1, respectively (FIG. 1F).

[2] = NO-ferroheme formation kinetics in serum albumin (UV-Vis)
Method: as §1
Stocks of hemin, glutathione, and NO were prepared as described above. An albumin stock (0.5-1 mM) was made in phosphate buffered saline (PBS) and the concentration verified by absorption spectroscopy using an extinction coefficient of 43.8 mM^−1 cm^−1 at 280 nm. Stock solutions were used to produce mixtures on a Schlenk line and transferred using Hamilton syringes with concentrations given in the results section. Solutions were made directly or indirectly and transferred with no differences between products of each preparation. The direct method involved adding ferric heme solution and glutathione directly to albumin in an argon- or nitrogen-filled, septum-sealed vial, followed by NO addition. Solutions were used after five minutes. The indirect method involved NO addition to heme and GSH in PBS before then adding albumin after five minutes. The NO-ferroheme was then incubated with albumin for thirty minutes.
As in the RBC ghost membrane system, GSH-catalyzed NO-ferroheme formation occurred in the presence of plasma serum albumin. […]

[3] = role: substrate, GSH varied, ferric heme, NO, albumin, 22 °C

CC(=O)CC(c1ccccc1)c1c(O)c2ccccc2oc1=O (stereo not shown)
effect on rate of NO dissociation from heme-albumin (albumin): accelerated

C=CC1=C(C)c2cc3[nH]c(cc4nc(cc5[nH]c(cc1n2)c(C)c5CCC(=O)O)C(CCC(=O)O)=C4C)c(C)c3C=C.[Fe+3]
platelet inhibition, effect in words (platelets): No platelet inhibition was observed

sodium nitrite
vasodilation, words (mice): low-amplitude, sustained vasodilation

N[C@@H](CCC(=O)N[C@@H](CS)C(=O)NCC(=O)O)C(=O)O
spectral changes of ferric heme ([1]; 300 μM GSH to 30 μM ferric heme, no NO): no observable spectral changes | observed 2nd-order rate constant (GSH dependence) ([1]; role: substrate, GSH varied, [NO] 250 μM, ferric heme, MeOH:PBS, 23 °C, anaerobic): 7000 M⁻¹ s⁻¹ | platelet inhibition, effect in words (platelets): No platelet inhibition was observed | effect on rate of NO-ferroheme formation in albumin ([2]; 500 μM serum albumin): accelerates the rate of NO-ferroheme formation in a dose-dependent manner | observed 2nd-order rate constant, fast phase [2, 3]: 700 M⁻¹ s⁻¹ | observed 2nd-order rate constant, second phase [2, 3]: 20 M⁻¹ s⁻¹

CC(C)Cc1ccc(C(C)C(=O)O)cc1 (stereo not shown)
effect on rate of NO dissociation from heme-albumin (albumin): accelerated
